According to patent US20130331345A1, “PUERARIN HYDRATES, PREPARATION METHODS AND USES THEREOF” (priority 2010, published 2013):

Conditions: off-white crystalline powder

Substance: puerarin 1.25 hydrate [Sample 4]
- Solubility in water: easy to dissolve in water
